Binding of CDR-mutated scFvs to a peptide of the spike HR2 region

Source: Li et al. 2023 (doi:10.1038/s41467-023-39022-2), MIT Lincoln Laboratory and A-Alpha Bio; data file from the FLAb repository.

All variants were tested on one target, the spike HR2 peptide PDVDLGDISGINAS (SARS-CoV-2).

The variants keep the heavy chain, the linker and the frameworks of Ab-14 (scFv order VH, a (GGGGS)3 linker, VL).
VH: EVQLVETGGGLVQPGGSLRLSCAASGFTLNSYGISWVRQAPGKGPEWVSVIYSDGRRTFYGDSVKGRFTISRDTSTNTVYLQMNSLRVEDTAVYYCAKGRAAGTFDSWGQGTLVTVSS
VL: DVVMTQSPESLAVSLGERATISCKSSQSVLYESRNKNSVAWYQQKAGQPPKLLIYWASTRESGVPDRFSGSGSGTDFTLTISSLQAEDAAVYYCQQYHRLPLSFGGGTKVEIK

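These sequences belong to a second round, designed from the earlier measurements on random variants of the parent. Their group label is 14L_Ctrl (Ctrl: baseline library sampled from a position-specific scoring matrix, with some repeated check sequences). The assay is AlphaSeq: two haploid yeast populations carry antibody and antigen on their surface. Pairs that bind mate more often; barcode pairs of the diploids are counted by sequencing. Each replicate has its own calibration line, from reference interactions of the BCL2 family. The assay was run in six technical replicates.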

Positions count from residue 1 of the parent VL; L30D puts D in place of L.
Numbers give log10(Kd / nM), so 0 is 1 nM and 3 is 1 µM. Smaller is tighter.
"ND" marks a missing value. The strain was present, yet no cells mated with the target were sequenced in that replicate, which points to weak or no binding.
Nonspecific signal, from three strains lacking the peptide, appeared in 4% of pairings of all light chain designs, centred on 2.64 (5% of these signals below 1.59); values are not corrected for it. The control count says in how many pairings with the empty strains this scFv gave a signal, with their mean in brackets.
The authors averaged sequences with at least three values out of six and counted those with two or fewer as poor binders.
Values of this round are not directly comparable with the first-round values of the same sequences.

| changes | log10 Kd, replicates | signal with controls |
|---|---|---|
| L30D Q96C H98F | ND ND ND ND ND ND | 0/18 |
| S25I L30W W56A P101C | -0.01 0.01 0.12 -0.36 0.20 0.29 | 1/18 (2.00) |
| Y31D V39I H98V | 0.98 0.72 0.73 0.64 1.06 1.18 | 2/18 (1.69) |
| Y97K H98R | ND ND ND ND ND ND | 2/18 (1.41) |
| R34V S103C | ND 0.90 ND ND 1.38 ND | 0/18 |
| S25A S38A V39I W56A | ND 1.29 1.54 ND 1.68 2.99 | 0/18 |
| S33D N37R T59Q Q96T H98E | ND 3.01 ND ND ND ND | 1/18 (3.07) |
| V29D | 0.74 2.47 1.53 0.83 1.09 1.91 | 0/18 |
| S25H L30P | 2.18 1.51 1.04 1.39 2.29 2.56 | 1/18 (1.94) |
| V29G W56N A57S | 0.09 0.70 0.15 -0.10 0.03 0.37 | 0/18 |
| Q27P W56A S103G | 1.03 0.73 0.92 0.67 0.79 0.83 | 0/18 |
| Q27T Y31W N35D W56E Q95S | ND ND ND ND ND ND | 0/18 |
| K24R S33D R34A W56K | 0.70 0.91 1.86 -0.05 0.38 0.56 | 0/18 |
| S25F L30E | 0.79 0.91 0.70 0.65 0.79 1.00 | 1/18 (2.68) |
| S26E Q27L V29K N35D | 1.21 ND ND ND ND ND | 0/18 |
| S25M R34S | 0.57 0.54 0.22 0.18 0.48 0.48 | 0/18 |
| V29K S62Q P101R S103Y | ND ND ND ND ND ND | 0/18 |
| K24S S25Q S26M S58L R60H H98K | ND ND ND ND ND ND | 0/18 |
| T59F E61V | ND ND ND ND ND ND | 0/18 |
| S33M K36N R99S | 2.57 ND 2.01 ND ND ND | 0/18 |
| K24V K36S S58T | ND ND 1.98 ND ND 1.85 | 0/18 |
| Y31D S33D R99V | ND ND ND ND ND ND | 0/18 |
| S26V W56K T59E S62I L102H | ND ND ND ND 1.89 ND | 0/18 |
| Q27G E61S Q96T | ND ND ND ND ND ND | 1/18 (1.07) |
| S33F S38N W56Q | 0.74 0.21 -0.05 0.23 0.19 0.56 | 0/18 |
| S25I R34N W56D S58G T59W | 0.09 -0.11 -0.07 0.26 0.14 0.16 | 1/18 (1.20) |
| K36S R99Y | 3.11 ND ND ND 3.84 ND | 1/18 (2.41) |
| S25M V29A | 0.53 0.70 0.69 0.68 1.34 0.71 | 1/18 (2.63) |
| S33C N37Y S58L H98D | ND ND ND ND ND ND | 0/18 |
| V29T E32Y | ND ND ND ND ND ND | 0/18 |
| K36V V39I W56Q H98E | 0.19 0.47 0.31 0.05 -0.18 0.63 | 0/18 |
| S25I V29L W56D Q95V | 0.72 1.53 0.81 0.87 1.05 0.65 | 1/18 (2.21) |
| Y31D S62M | 1.51 2.27 1.76 2.00 2.21 2.10 | 0/18 |
| S26N Q27S R34E V39I W56S S58F L102Y | ND ND ND 4.73 ND 2.70 | 1/18 (4.54) |
| S28Y R34Q S38H W56Q E61P Q96C | ND 1.77 ND 2.87 ND 1.75 | 0/18 |
| V39L S58M R99V | ND ND 1.51 ND ND ND | 0/18 |
| L30G S33A | 1.57 2.34 ND ND ND ND | 1/18 (1.35) |
| Q95L S103N | ND ND ND ND ND ND | 0/18 |
| S25F L30P K36P Q96C | 1.20 ND ND 2.07 2.26 1.70 | 0/18 |
| K36S W56N | 0.57 0.72 0.75 0.50 0.48 0.67 | 4/18 (2.80) |
| Y31P R34F W56A | 0.58 0.37 0.10 0.15 0.39 0.21 | 0/18 |
| S25N Y97R R99S L102P | ND ND ND ND 1.51 ND | 0/18 |
| E32T W56Q | 0.74 0.42 0.42 0.08 -0.26 0.28 | 0/18 |
| A57G R99D | ND ND ND 2.94 2.73 3.28 | 2/18 (1.84) |
| R34I | 1.41 1.20 1.47 ND ND ND | 0/18 |

Picked from the list: the 3 lowest averages where every replicate gave a value.

| changes | log10 Kd, replicates | signal with controls |
|---|---|---|
| S25I L30W W56A P101C | -0.01 0.01 0.12 -0.36 0.20 0.29 | 1/18 (2.00) |
| S25I R34N W56D S58G T59W | 0.09 -0.11 -0.07 0.26 0.14 0.16 | 1/18 (1.20) |
| V29G W56N A57S | 0.09 0.70 0.15 -0.10 0.03 0.37 | 0/18 |